Molecular target: T1, SNORF25 (Homo sapiens, UniProt Q8TDV5)
T1 sequence (Q8TDV5 1-335): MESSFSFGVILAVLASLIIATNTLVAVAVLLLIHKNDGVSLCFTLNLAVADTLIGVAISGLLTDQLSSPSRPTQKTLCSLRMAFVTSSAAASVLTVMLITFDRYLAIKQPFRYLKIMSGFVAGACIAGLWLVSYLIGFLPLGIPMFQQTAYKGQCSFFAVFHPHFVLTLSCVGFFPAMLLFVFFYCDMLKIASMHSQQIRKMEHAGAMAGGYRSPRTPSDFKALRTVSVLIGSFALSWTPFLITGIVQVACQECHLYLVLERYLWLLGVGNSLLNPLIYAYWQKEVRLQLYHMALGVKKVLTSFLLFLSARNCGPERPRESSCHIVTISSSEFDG
Assay: Stimulation of cAMP release by CHO cells stably expressing hSNORF25 receptors
Assay type: cell-based
Parameters: expressed in transfected cells
Conditions: mean ± S.E.M., at least 3 experiments
Description: CHO cells are grown on 150 mm plates in HAM's F-12 medium with supplements (10% bovine calf serum, 4 mM L-glutamine and 100 units/ml penicillin/100 μg/ml streptomycin) at 37° C., 5% CO2. Stock plates of CHO cells are trypsinized and split 1:8 every 3–4 days.
Heterologous DNA can be stably incorporated into host cells, causing the cell to perpetually express a foreign protein. Methods for the delivery of the DNA into the cell are similar to those described above for transient expression but require the co-transfection of an ancillary gene to confer drug resistance on the targeted host cell. The ensuing drug resistance can be exploited to select and maintain cells that have taken up the DNA. […]
The receptor-mediated stimulation or inhibition of cyclic AMP (cAMP) formation may be assayed in cells expressing the receptors. […] The plates are stored at 4° C. for 15 min, and the cAMP content in the stopping solution is measured by radioimmunoassay. Radioactivity may be quantified using a gamma counter equipped with data reduction software. […]
According to a second method, cells are washed 2 times with HEPES buffered saline, as described above, and incubated overnight. […] The plates are stored at 4° C. for 15 min, and the cAMP content in the stopping solution is measured by radioimmunoassay. Radioactivity may be quantified using a gamma counter equipped with data reduction software. […]

Question: How did the EC50 turn out when PAF(C16) was run?
Answer: 0.982 ± 0.233 µM

Reference: US7416848B2, “DNA encoding SNORF25 receptor” (H. Lundbeck A/S, priority 1999, dated 2008)
